Literature values as cited in US8551516B2, “Administration of non-oral androgenic steroids to women” (Actavis, Inc., priority 1999, dated 2013).

The chains behind the UniProt entries cited, without tags or fusion partners. Residues count along the entry.
UniProt P02768, 25-609: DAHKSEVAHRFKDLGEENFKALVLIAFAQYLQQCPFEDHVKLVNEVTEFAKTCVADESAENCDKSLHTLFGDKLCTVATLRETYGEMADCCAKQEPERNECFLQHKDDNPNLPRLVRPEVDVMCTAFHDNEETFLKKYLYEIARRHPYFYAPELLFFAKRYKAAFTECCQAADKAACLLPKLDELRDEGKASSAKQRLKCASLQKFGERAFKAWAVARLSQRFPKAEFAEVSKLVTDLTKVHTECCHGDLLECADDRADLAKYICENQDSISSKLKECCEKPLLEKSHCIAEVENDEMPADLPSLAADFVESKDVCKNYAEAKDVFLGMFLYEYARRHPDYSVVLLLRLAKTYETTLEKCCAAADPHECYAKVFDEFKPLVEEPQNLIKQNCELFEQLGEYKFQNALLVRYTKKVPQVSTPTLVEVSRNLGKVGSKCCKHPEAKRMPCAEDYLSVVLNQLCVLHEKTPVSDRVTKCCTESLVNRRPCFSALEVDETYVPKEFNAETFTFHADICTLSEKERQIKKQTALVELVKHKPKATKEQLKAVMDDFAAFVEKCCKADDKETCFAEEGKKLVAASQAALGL

Molecular target: serum albumin (Homo sapiens, UniProt P02768)
Conditions: Vermeulen et al. 1999; cited from earlier work

For `C[C@]12CC[C@H]3[C@@H](CCC4=CC(=O)CC[C@@]43C)[C@@H]1CC[C@@H]2O` [testosterone, (17)-17-Hydroxyandrost-4-en-3-one], the albumin-testosterone binding constant is listed as 36000 L/mol.
